In PubChem BioAssay AID588819 (The Scripps Research Institute Molecular Screening Center, 2011):
The list shows a part of the results, in another mix than the full data. The source made the active and inactive calls. Rule as the data show it: active = activation above about 19% (passing the limit was not always enough); inactive = the rest.

By UniProt entry, the sequences of proteins in these tests, tags left out. Where a name states a change or a piece, a line headed by the entry shows the natural chain unless it says otherwise.
UniProt P11229: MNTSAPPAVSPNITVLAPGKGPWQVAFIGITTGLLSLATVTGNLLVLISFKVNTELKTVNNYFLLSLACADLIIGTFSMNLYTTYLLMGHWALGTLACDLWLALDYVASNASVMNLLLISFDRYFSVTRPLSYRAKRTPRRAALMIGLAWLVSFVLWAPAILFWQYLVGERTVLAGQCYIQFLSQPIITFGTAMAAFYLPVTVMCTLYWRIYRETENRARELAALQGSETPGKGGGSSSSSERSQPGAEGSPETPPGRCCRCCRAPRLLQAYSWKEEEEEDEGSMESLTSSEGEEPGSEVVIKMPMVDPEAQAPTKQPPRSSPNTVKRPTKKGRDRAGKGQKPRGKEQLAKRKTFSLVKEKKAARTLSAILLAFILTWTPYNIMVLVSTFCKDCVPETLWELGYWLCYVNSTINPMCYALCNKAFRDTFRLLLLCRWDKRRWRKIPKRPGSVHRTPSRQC

Biological target: Muscarinic acetylcholine receptor M1 (Homo sapiens) (UniProt P11229)
Assay: CHRM1 PAMs potentiating acetylcholine calcium signal – CHO-K1 cells, Fluo-8 calcium fluorescence, 1536-well, primary screen (AID 588819)
Conditions: CHO-K1 hM1, Fluo-8 calcium fluorescence, ACh EC20; at 3 µM; hits give high values; 0% = ACh EC20, 100% = maximal ACh

SMILES	activation
O=[N+]([O-])C1C(O)C(O)C([N+](=O)[O-])C(O)C1O (centres undefined)	inactive: 5.57%
Nc1cc(N)c2nonc2c1[N+](=O)[O-]	inactive: 0.9%
CC(C)CC(=O)NC(Sc1ccc(Cl)cc1)C(Cl)(Cl)Cl (centres undefined)	inactive: -8.67%
Oc1ccccc1CNc1ccccn1	inactive: 5.42%
O=C(NC(Sc1ccncn1)C(Cl)(Cl)Cl)c1ccccc1 (centres undefined)	inactive: 9.85%
COc1ccccc1OP(=O)(Nc1ccc(C)cn1)Oc1ccccc1OC	inactive: -4.32%
CC(C)[C@H]1C(=O)O[C@@H]2CCN3CC=C(COC(=O)[C@](C)(O)[C@]1(C)O)[C@H]23	inactive: -1.21%
Cc1ccc(OP(=O)(Nc2nccs2)Oc2ccc(C)cc2)cc1	inactive: 12.6%
CN1CCCC(OC(=O)C(c2ccccc2)c2ccccc2)C1 (centres undefined)	inactive: -20.1%
Clc1ccc(Cl)c(NC2=NCC(CBr)S2)c1 (centres undefined)	inactive: 11.9%
NC(=O)c1cc([N+](=O)[O-])cc([N+](=O)[O-])c1N	inactive: 4.38%
CN(C(=O)Cc1ccc(Cl)c(Cl)c1)[C@H]1CCCC[C@H]1N1CCCC1	inactive: -9.51%
Cc1ccc(N/C(=N/P(=O)(N2CCOCC2)N2CCOCC2)N2CCOCC2)cc1	inactive: -4.17%
CCN(N=Nc1nonc1N)c1nonc1N	inactive: 2.99%
Nc1cccc2ccc([As](=O)(O)O)cc12	inactive: 5.41%
Cc1cc(SC(NC(=O)c2ccc(F)cc2)C(Cl)(Cl)Cl)ncn1 (centres undefined)	inactive: 4.29%
CCOP(=O)(Nc1ccccc1)OCC	inactive: 2.21%
Cc1ccc(NP(=O)(Oc2ccccc2F)Oc2ccccc2F)nc1	inactive: -6.51%
CN(C(=O)Cc1ccc(Cl)c(Cl)c1)[C@H]1CCCC[C@@H]1N1CCCC1	inactive: -5.43%
CC(=O)Nc1ccc([As](=O)(O)O)cc1	inactive: 4.16%
O=C(O)c1ccccc1[As](=O)(O)O	inactive: 18.3%
CCCC1OP(N)(=O)OCC1CC (centres undefined)	inactive: 1.7%

SMILES	activation
CC(=O)O[C@]1(C)C(=O)OC/C2=C/CN(C)CCC(OC(=O)[C@@](O)(C(C)O)C[C@H]1C)C2=O (some centres undefined)	inactive: 0.52%
O=P(Nc1nc2ccc(Cl)cc2s1)(c1ccccc1)c1ccccc1	inactive: -5.93%
CN(C)P(=O)(N(C)C)n1c(Nc2ccccc2)nnc1-c1ccccc1	inactive: 6.64%
COC(=O)C1(C)COP(=O)(Nc2ccccc2)OC1 (centres undefined)	inactive: 3.98%
O=[N+]([O-])c1cccc(NC2=NCC(CBr)S2)c1 (centres undefined)	inactive: 7.55%
O=C(O)CNc1ccc([As](=O)(O)O)cc1	inactive: -4.65%
C/C=C1/C[C@@H](C)[C@](O)(CO)C(=O)OCC2=CCN3CC[C@@H](OC1=O)[C@@H]23	inactive: 0.73%
CC(C)(C)C(=O)NC(Sc1ccncn1)C(Cl)(Cl)Cl (centres undefined)	inactive: 9.32%
O=[N+]([O-])c1ncn(CCn2ncnc2[N+](=O)[O-])n1	inactive: 4.94%
O=C(Nc1cc([As](=O)(O)O)ccc1O)c1ccccc1	inactive: 7.93%
O=P1(N(CCCl)CCCl)OCCCS1 (centres undefined)	inactive: 20.1%
CC(C)c1nc(Nc2ccccc2)n(P(=O)(N(C)C)N(C)C)n1	inactive: 4.84%
CC(C)=N/N=C(\N)N[N+](=O)[O-]	inactive: 11.4%
CN(C)C(=O)OCCc1n(C)cc[n+]1C	inactive: 3.88%
CC1CCN(C(=O)Oc2c(Cl)cc(Cl)c3cccnc23)CC1	inactive: -1.93%
c1cc(-c2nn[nH]n2)ccc1-c1nn[nH]n1	inactive: 11.3%
Nc1ccc([As](=O)(O)c2ccc(N)cc2)cc1	inactive: 16.6%
C[N+]1=C2C=CC=CC=C2SC12C([N+](=O)[O-])=CC([N+](=O)[O-])=C[C-]2[N+](=O)[O-] (centres undefined)	inactive: -0.3%
CCN(/C(=N/P(=O)(N1CCOCC1)N1CCOCC1)N1CCOCC1)c1ccc(OC)cc1	inactive: -0.13%
O=[N+]([O-])c1cccc2n[nH]nc12	inactive: 5.69%
CC(=O)N1C2C3N(C(C)=O)C1C1N(C(C)=O)C(C(N1C(C)=O)N3C(C)=O)N2C(C)=O	inactive: 8.6%
Cc1ccc(NP(=O)(Oc2ccccc2)Oc2ccccc2)nc1	inactive: -5.09%

SMILES	activation
CCc1nc2c(n1)c1c(non1O)c1c2no[n+]1[O-]	inactive: -2.94%
O=[N+]([O-])c1cc([N+](=O)[O-])c(CCNc2ccccc2)c([N+](=O)[O-])c1	inactive: 0.6%
COc1ccc(C2=NCC(CBr)S2)cc1 (centres undefined)	inactive: 7.13%
COc1ccc(C[C@H](C)NC[C@@H](O)c2ccc(O)c(NC=O)c2)cc1	inactive: 2.82%
c1nnnn1CCn1cnnn1	inactive: 13.5%
CC(C)C(=O)NC(Sc1ccccc1)C(Cl)(Cl)Cl (centres undefined)	inactive: 0.42%
O=P(Nc1nccs1)(c1ccccc1)c1ccccc1	inactive: 7.79%
C(Cc1nn[nH]n1)Cc1nn[nH]n1	inactive: 5.38%
Nc1ccc([As](=O)(O)c2ccc([N+](=O)[O-])cc2)cc1	inactive: 5.1%
O=C(OC1CN2CCC1CC2)c1cccc(Cl)c1 (centres undefined)	inactive: -21.8%
O=[N+]([O-])c1ccc(O)c(/C=N/Nc2ccc([N+](=O)[O-])cc2[N+](=O)[O-])c1	inactive: 8.43%
O=[N+]([O-])c1ncn(CCn2cnc([N+](=O)[O-])n2)n1	inactive: 10.3%
CC(=O)NC(SC(=S)N(C)C)C(Cl)(Cl)Cl (centres undefined)	inactive: 8.43%
O=[As](O)(c1ccccc1)c1ccc(O)cc1	inactive: 0.16%
COc1ccc(CC2NCC(O)C2OC(C)=O)cc1 (centres undefined)	inactive: 9.62%
O=P(Nc1nc2ccccc2s1)(c1ccccc1)c1ccccc1	inactive: -2.78%
C[C@H]1OP(=O)(Oc2ccccc2)[C@H](O)[C@H](O)[C@H]1N=[N+]=[N-] (some centres undefined)	inactive: 3.77%
COc1ccc(N)c([N+](=O)[O-])c1[N+](=O)[O-]	inactive: 2.38%
Nc1ccc(CCCCOc2ccccc2)cc1	inactive: 10%
O=P(Nc1ccccn1)(c1ccc(Br)cc1)c1ccc(Br)cc1	inactive: 1.37%
